# Assay results from patent publication EP3353259B1, “SILYL MODIFIED POLYMER SEALANT” (Strongbond B.V., priority 2015, dated 2017).
# Assay: Stress test: degradation time at 150°C of the sealant with antioxidant after storage of the uncured sealant at 40°C
# Protocol: All ingredients except the Tegokat are added to a Hauschild cup and mixed in a Hauschild mixer for 60 seconds. Than the catalyst is added and mixed for another 30 seconds. Additionally UV- and light stabilizers, pigments etc. may be added in the first or second step.
# In fig.6 the degradation time in hours at 150°C is plotted versus the time in days prior to cure at 40°C. On the horizontal axis the time the sealant was stored at 40°C before cure in days is given, showing the storage stability of the anti-oxidant, and on the vertical axis the time in hours to degradation at 150°C, showing the effectiveness of the anti-oxidant after storage of the sealant. This test may be seen as a stress test for both storage stability of the sealant as subsequent oxidation stability. The line represents the present situation using Irganox 1135 commonly applied in the sealant.
# In fig. 8 a similar test as in fig. 6 is performed with the above mentioned anti-oxidants.
# At present samples have been tested of a commercial STP (or SMP) sealant containing Irganox 1035, Irganox 1330 and a mixture thereof. The total antioxidant content of all samples is 4 g/kg STP polymer. The samples are stored in an oven at 40°C. The degradation times are determined at 150°C as a function of storage time. Furthermore, tensile tests are performed directly and after dumbbells used in said tests are exposed to 100°C for 1000 hours. This is done on freshly prepared sealants and sealants that have been stored at 40°C for 4 weeks.
substance,measurement,setting,value
Styrenated Phenol [reference compound],Relative decrease degradation time after 7days @ 40°C,after 7 days at 40°C relative to initial,83%
same,Degradation time after 7 days @ 40°C,time to degradation at 150°C after storage of the sealant for 7 days at 40°C,10 h
same,Initial degradation Time,"time to degradation at 150°C, sealant not stored before cure",12 h
